Test results as given in patent US9186391B2, “Cyclic peptide inhibitors of lysine-specific demethylase 1” (MUSC FOUNDATION FOR RESEARCH DEVELOPMENT, priority 2013, dated 2015).

Biological target: purified recombinant LSD1 (Homo sapiens, UniProt O60341)
Settings: 10000.0

Compound: N=C(NCCCNCCCCCCCNCCCNC(=N)NC(=N)NCCC(c1ccccc1)c1ccccc1)NC(=N)NCCC(c1ccccc1)c1ccccc1 [compound 3, verlindamycin, reference compound]
- % Inhib. of LSD1 at 10 μM: 95%
